Compound activity deposited in PubChem BioAssay by several laboratories.
UUG fidelity = alters start codon recognition fidelity in yeast; S. cerevisiae UUG-firefly luciferase reporter, luminescence/redox ratio; activity score, % at 18.7 µM; actives 0.13% (n = 350,000); AID 602363;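 active = replicate mean at a twofold rise or more, about +100% in these data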;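 also: firefly luciferase made from a UUG start codon reports start codon fidelity; reporter light over untreated wells divided by growth signal over untreated wells; some hits fall short of that in this replicate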
Rce1 inhib = blocks yeast Ras-converting enzyme; AID 2563; yeast membranes, quenched prenylated peptide cleavage fluorescence; calls only; Q03530; hit rate 0.27% among 290,000;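 active means fall in fluorescence gain of 50% or more versus controls, with final raw signal at or below 3038400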;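 further: plate controls were neutral control wells for no effect and wells lacking membranes for full effect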
Arr AP2 block = blocks beta-arrestin peptide binding to AP2 adaptin; FITC-arrestin peptide / GST-AP2 beads, flow cytometry; AP2 beta2 appendage carries R879A mutation; inhibition, % at 10 µM; hit rate 0.31% among 340,000; AID 504490;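 active means inhibition above a set limit, near 3 SD of compounds lacking own fluorescence, cut at about 54% in these data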;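 further: plate controls were DMSO wells for no effect and 5 µM unlabelled arrestin peptide for full effect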
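test system = AP2 appendage R879A on GSH beads | buffer or medium = PBS plus Tween 20 (0.05%) and BSA (0.1%) | incubation = 12 min plus 1 h, RT | detection = bead flow cytometry, FITC channel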
TbMetRS inhib = blocks T. brucei methionyl-tRNA synthetase activity; AID 624268; inhibition, % at 11.9 µM; hit rate 0.4% among 360,000; purified T. brucei MetRS, ATP depletion, Kinase-Glo luminescence;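 active means inhibition above a per-plate cutoff of the control wells' mean inhibition plus 3 SD, cut at about 5.5% in these data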;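 further: 0% = DMSO wells median and 100% = median of wells with control inhibitor compound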
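Dosing: 11.9 µM compound single dose, 0.9% DMSO; Assay system: purified T. brucei MetRS enzyme; Measured by: Kinase-Glo luciferase luminescence reporting remaining unconsumed ATP; Schedule: 15 min plus 2 h at 25 °C.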
DSG3 Ab inh = human desmoglein-3 autoantibody binding inhibition; P32926; DSG3-coupled beads, scFv-anti-DSG3-GFP binding, flow cytometry; stronger effect = lower value; binding (percent of control), % at 10 µM; hit rate 0.48% among 310,000; AID 588358;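 active means binding more than 3 SD below its plate's average and above zero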;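 further: hits lower antibody fragment binding to DSG3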
Arr-AP2 CP1 = human beta-arrestin and AP2 interaction inhibition, cherry pick | shares compounds with Arr AP2 block | hit rate 2% among 1,300 | AID 504908 | GST-AP2 beads, FITC arrestin peptide binding, flow cytometry; GST-fused beta2-adaptin appendage, R879A mutant | inhibition, % at 10 µM;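 active means inhibition above a set limit, roughly 3 SD of non-fluorescent compound noise, cut at about 38% in these data; inactive means inhibition at or below that limit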;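 further: loss of bead fluorescence from 50 nM FITC arrestin peptide bound to appendage; 0% = negative control wells and 100% = excess unlabelled arrestin peptide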
GST-FITC bead = disrupts GST binding to glutathione beads, arrestin-AP2 artifact | shares compounds with Arr AP2 block | hit rate 2% among 1,300 | GST-fluorescein binding to GSH beads, fluorescence, counter-screen | inhibition, % at 10 µM;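 active means inhibition above 50%, about 3 SD of the inhibition seen with non-fluorescent compounds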;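 further: fluorescein maleimide labelled GST captured on 4 micron glutathione beads; higher means more loss of bead fluorescence from quenching or blocked binding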
* = called active by the depositor; i = inactive; / = no result given; ! = a repeat was not active. Compounds with a hit are over-represented: about 1.2% of the library has one in this group of screens.

Values run as follows: TbMetRS inhib, GST-FITC bead, DSG3 Ab inh, Arr AP2 block, Arr-AP2 CP1, UUG fidelity, Rce1 inhib
- O=C1C(Cl)=C(N2CCCCC2)C(=O)C(Cl)=C1c1cnc(N2CCCCC2)s1
  0, 18, 84, 98*, 68*, -9, i
- CC(=O)c1cnc(N(C)C)s1
  0, /, 102, 10, /, 9, i
- CN(C)c1ncc(C2=C(Cl)C(=O)C(N3CCCC3)=C(Cl)C2=O)s1
  -1, 27, 96, 88*, 77*, -7, i
- O=C(Nc1ccc(F)cc1)Nc1nnc(COc2ccccc2F)s1
  1, 34, 86, 106*, -8, /, i
- CCN(CC)C(=O)Nc1c(C)n(C)n(-c2ccccc2)c1=O
  0, -3, 102, 65*, 0, -4, i
- CCC(CC)C(=O)Nc1c(C)n(C)n(-c2ccccc2)c1=O
  -2, /, 85, 13, /, 0, i
- CO[C@@H]1CN(C)C(=O)c2cc(NC(=O)Nc3cccc(F)c3)ccc2OC[C@H](C)NC[C@H]1C
  /, /, /, /, /, 1, /
- O=C(C[C@H]1C[C@H]2c3cc(NC(=O)NC4CCCC4)ccc3O[C@H]2[C@@H](CO)O1)NCc1ccccc1
  /, /, /, /, /, -6, /
- Cc1ccnn1CCC(=O)N1CCCC(Nc2ccc(F)c(F)c2)C1 (stereo not given)
  0, -2, 0.9*, 67*, 6, -3, i
- Cc1ccnn1CCC(=O)N1CCCC(Nc2ccc(C(C)C)cc2)C1 (stereo not given)
  0, /, 99, /, /, 5, /
- CCN1/C(=C/c2ccc3cc(C)ccc3[n+]2C)Sc2ccc3sccc3c21
  -1, 43, 3.0*, 78*, 68*, -20, /
- CCN1/C(=C/c2ccc3cc(C)ccc3[n+]2CC)Sc2cc(C)ccc21
  -1, /, 111, -74, /, 40, /
- CCn1ncc(Br)c1C(=O)NC1CCCCCCC1
  0, -8, 98, 60*, -3, -17, i
- C[C@@H]1CN([C@H](C)CO)C(=O)Cc2cc(NC(=O)c3ccncc3)ccc2O[C@H]1CN(C)S(=O)(=O)c1ccccc1
  /, /, /, /, /, 12, /
- CCCNC(=O)N1C[C@H](O)COC[C@H]2O[C@H](CC(=O)N3CCCCC3)CC[C@@H]21
  /, /, /, /, /, 7, /
- Cc1noc(C)c1S(=O)(=O)N(C)C[C@@H]1OCCCC[C@H](C)Oc2ccc(NS(C)(=O)=O)cc2C(=O)N([C@H](C)CO)C[C@@H]1C
  /, /, /, /, /, -9, /
- Oc1c(C=C2N=c3ccccc3=N2)sc(=S)n1C1CCCC1
  0, -1, 92, 110*, -2, -7, i
- Cc1ccc(SCC(=O)OCC(=O)NCC2CCCCC2)cc1C
  0, /, 109, 13, /, -5, i
- Cc1ccc(SCC(=O)OCC(=O)NCCNC(=O)COC(=O)CSc2ccc(C)c(C)c2)cc1C
  -1, -2, 100, 68*, -4, /, i
- CCNC(=O)Nc1ccc2c(c1)C(=O)N(C)[C@H]1CC[C@H](CC(=O)NCc3ccccc3F)O[C@H]1CO2
  /, /, /, /, /, 0, /
- CCN(CC)c1ccc(NS(=O)(=O)c2ccc(-c3ccc(=O)[nH]n3)o2)c(C)c1
  1, 6, 122, 57*, 2, -11, i
- Cc1ccc(NC(=O)Cn2ncn3c(cc4ccccc43)c2=O)cc1F
  0, -4, 100, 66*, 0, -6, i
- CCc1cccc(NC(=O)Cn2ncn3c(cc4ccccc43)c2=O)c1
  4, /, 98, 2, /, -15, i
- Nc1ccc(N(c2ccccc2)c2ccc(N)cc2)cc1
  -1, 16, /, 59*, 10, -5, i
- CN(C)c1ccc(CCc2ccc(N)cc2)cc1
  0, /, 123, 23, /, -14, i
- O=C(C[C@H]1C=C[C@H](NC(=O)CCN2CCCCC2)[C@H](CO)O1)Nc1nccs1
  /, /, /, /, /, -4, /
- O=C(NC1CCCCC1)N1CCN(CCc2ccccc2)CC1
  -1, -2, 101, 54*, -2, -14, i
- CCN1CCN(C(=O)NC2CCCCC2)CC1
  -1, /, 103, 26, /, -16, i
- Cc1c(C(=O)Nc2ccccn2)oc2c(Cl)cccc12
  -1, /, 103, 26, /, /, i
- Cc1c(C(=O)NC(C)c2ccccn2)oc2c(Cl)cccc12 (stereo not given)
  0, -10, 100, 74*, -11, 10, /

Entries listed so far that bear a hit mark in DSG3 Ab inh.
structure	TbMetRS inhib	DSG3 Ab inh	Arr AP2 block	Arr-AP2 CP1	UUG fidelity	Rce1 inhib
Cc1ccnn1CCC(=O)N1CCCC(Nc2ccc(F)c(F)c2)C1 (stereo not given)	0	0.9*	67*	6	-3	i
CCN1/C(=C/c2ccc3cc(C)ccc3[n+]2C)Sc2ccc3sccc3c21	-1	3.0*	78*	68*	-20	/

3 entries from above, with each value named:
> CN(C)c1ccc(CCc2ccc(N)cc2)cc1
  TbMetRS inhib: 0; GST-FITC bead: /; DSG3 Ab inh: 123; Arr AP2 block: 23; Arr-AP2 CP1: /; UUG fidelity: -14; Rce1 inhib: i

> O=C(C[C@H]1C=C[C@H](NC(=O)CCN2CCCCC2)[C@H](CO)O1)Nc1nccs1
  TbMetRS inhib: /; GST-FITC bead: /; DSG3 Ab inh: /; Arr AP2 block: /; Arr-AP2 CP1: /; UUG fidelity: -4; Rce1 inhib: /

> O=C(NC1CCCCC1)N1CCN(CCc2ccccc2)CC1
  TbMetRS inhib: -1; GST-FITC bead: -2; DSG3 Ab inh: 101; Arr AP2 block: 54*; Arr-AP2 CP1: -2; UUG fidelity: -14; Rce1 inhib: i

More records
Values run as follows: TbMetRS inhib, GST-FITC bead, DSG3 Ab inh, Arr AP2 block, Arr-AP2 CP1, UUG fidelity, Rce1 inhib
- COc1ccccc1C(=O)N1C[C@@H]2[C@H](c3ccccc31)[C@@H](CO)N2C(=O)Nc1ccccc1
  /, /, /, /, /, 7, /
- Cc1ccc(-c2cc(C(F)(F)F)n3ncc(C(=O)N4CCCc5ccccc54)c3n2)cc1
  -1, 56*!, 113, -6, 49*!, -4, i
- Cc1ccc(-c2cc(C(F)F)n3ncc(C(=O)N4CCc5ccccc54)c3n2)cc1
  -1, /, 84, 13, /, /, i
- NC(=O)SCC(=O)Nc1cccc(Cl)c1
  0, 10, 97, 82*, 19, /, i
- COc1cc2c(cc1NC(=O)CSc1ccc(Cl)cc1)oc1ccccc12
  0, 10, 106, 0, -9, -22, i
- COc1ccccc1CC(=O)Nc1cc2oc3ccccc3c2cc1OC
  -1, -24, 126, 54*, -3, -6, /
- CCN(CC)c1ccc(C(=O)OCC(=O)Nc2cc3oc4ccccc4c3cc2OC)cc1
  -1, -5, 93, 37, -13, -15, i
- COc1ccc(NC(=O)CC(C)CC(=O)NCc2ccccc2)c(OC)c1 (stereo not given)
  -1, 0, 101, 62*, 0, -12, i
- COc1ccc(NC(=O)CC(C)CC(=O)NCc2ccc(F)cc2)c(OC)c1 (stereo not given)
  0, /, 105, -7, /, -9, i
- COc1cc2c(cc1NC(=O)COC(=O)CNC(=O)c1ccccc1)oc1ccccc12
  0, /, 112, -2, /, /, i
- COc1cc2c(cc1NC(=O)COCC(=O)O)oc1ccccc12
  -1, /, 102, 27, /, -6, i
- CC(C)CC#Cc1ccc2c(c1)O[C@@H](CN(C)C(=O)Cc1ccccn1)[C@H](C)CN([C@H](C)CO)S2(=O)=O
  /, /, /, /, /, -1, /
- O=C(c1ccccn1)N1C[C@@H]2[C@H](c3ccccc31)[C@H](CO)N2C(=O)C1CC1
  /, /, /, /, /, -13, /
- CC(C)NC(=O)N(C)C[C@H]1OCCCC[C@@H](C)Oc2ccc(NS(=O)(=O)c3ccc(Cl)cc3)cc2C(=O)N([C@@H](C)CO)C[C@@H]1C
  /, /, /, /, /, 9, /
- COc1ccc(NC(=O)N2CCCCN3[C@H](CO)[C@@H](c4ccc(C5=CCCC5)cc4)[C@@H]3C2)cc1
  /, /, /, /, /, 6, /
- COc1ccc(CC(=O)Nc2cc3oc4ccccc4c3cc2OC)cc1
  0, 4, 101, 1, -4, -9, i
- O=C(/C=C/c1ccc(F)cc1)Nc1cc(S(=O)(=O)N2CCOCC2)ccc1N1CCOCC1
  0, /, 100, /, /, -4, /
